# Entries after “also recorded” stand apart in the source; their conditions may differ.
# The chains behind the UniProt entries cited, without tags or fusion partners.
# UniProt Q92847, whole entry: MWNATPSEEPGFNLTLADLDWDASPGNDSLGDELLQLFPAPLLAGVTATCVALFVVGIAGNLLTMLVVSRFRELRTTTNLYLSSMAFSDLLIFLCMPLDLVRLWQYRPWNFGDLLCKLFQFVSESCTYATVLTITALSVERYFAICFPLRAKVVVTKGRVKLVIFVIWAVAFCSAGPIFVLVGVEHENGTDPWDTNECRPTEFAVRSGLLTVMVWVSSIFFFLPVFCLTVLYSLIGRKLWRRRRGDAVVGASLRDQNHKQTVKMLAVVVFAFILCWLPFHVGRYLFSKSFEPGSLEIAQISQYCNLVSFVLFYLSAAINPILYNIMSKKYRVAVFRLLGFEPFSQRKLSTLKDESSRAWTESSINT
# Biological target: ghrelin receptor (Homo sapiens, UniProt Q92847)
# Test: Inositol trisphosphate turnover assay in COS-7 cells transfected with the ghrelin receptor
# Format: cell-based
# Design: expressed in transfected cells
# Details: for Emax ± SEM: efficacy, difference to constitutive activity (Table 2)
Structure (SMILES),"Emax (COS-7, inverse agonistic activity, read-out: efficacy (Emax)) [%]",Emax ± SEM (inverse agonistic activity),increase in activity compared with peptide 2 (KwFwLL-NH2) (inverse agonistic activity) [fold],activity at the ghrelin receptor (in words),"EC50 (inverse agonistic activity, analogs KxFwLL-NH2 (Table 2), mean ± SEM of n experiments) [nM]","x-fold (Emax) (shift in efficacy compared to KwFwLL-NH2, inverse agonistic activity) [x-fold]","x-fold (EC50) (shift in potency compared to KwFwLL-NH2, inverse agonistic activity) [x-fold]","x-fold (EC50) (shift in potency compared to ghrelin, agonistic activity) [x-fold]"
"CC(C)C[C@H](NC(=O)[C@H](CC(C)C)NC(=O)[C@@H](Cc1c[nH]c2ccccc12)NC(=O)[C@H](Cc1ccccc1)NC(=O)[C@@H](Cc1csc2ccccc12)NC(=O)[C@@H](N)CCCCN)C(N)=O [Peptide 4, K-(D-Bth)-FwLL-NH2]",> 80,81 ± 2 Δ %,8.0,–,–,–,–,–
"CC(C)C[C@H](NC(=O)[C@H](CC(C)C)NC(=O)[C@@H](Cc1c[nH]c2ccccc12)NC(=O)[C@H](Cc1ccccc1)NC(=O)[C@@H](Cc1ccc(C(C)(C)C)cc1)NC(=O)[C@@H](N)CCCCN)C(N)=O [Peptide 10, K-(D-tBf)-FwLL-NH2]",–,76 ± 5 Δ %,–,severe loss of activity,624,2.1,13.7,–
"CC(C)C[C@H](NC(=O)[C@H](CC(C)C)NC(=O)[C@@H](Cc1csc2ccccc12)NC(=O)[C@H](Cc1ccccc1)NC(=O)[C@@H](Cc1c[nH]c2ccccc12)NC(=O)[C@@H](N)CCCCN)C(N)=O [Peptide 17, KwF-(D-Bth)-LL-NH2]",–,–,–,no activity; also recorded: total loss of activity,–,–,–,>700

# From patent US9718861B2 (Universitaet Leipzig, priority 2011, dated 2017)
